# Reference: patent publication US9566330B2, “Immunogenic composition for immune system modulation and use thereof, method for treating and preventing diseases, method for inducing cell regeneration and method for restoring immune response” (priority 2011, dated 2017)
# How the values were obtained:
# [1] = high dosage (600,000-720,000 UI/Kg) in clinical practice; cited from earlier work
# B16-F10 melanoma cells = conditions: DECA-IL-2 group, IL-2 20,000 UI twice a day
substance,measurement,setting,value
IL-2: Interleukin-2,toxic symptoms observed,[1],comparable to the induction of a controlled state of septic shock
same,tolerance to the repeated treatment with IL-2,B16-F10 melanoma cells,good tolerance
